Measured values from publication PMC3446843 (Toxicological Sciences, 2012).

Tested on: isolated mouse liver mitochondria
Assay: Mitochondrial swelling
Settings: without Ca2+ pulse

## O=C(O)Cc1ccccc1Nc1c(Cl)cccc1Cl [Diclofenac]
  induction of mitochondrial swelling (in words): unable to induce
